Reference: paper PMC8408562, “Spatially restricted substrate-binding site of cortisol-synthesizing CYP11B1 limits multiple hydroxylations and hinders aldosterone synthesis” (Current Research in Structural Biology, 2021)

The chains behind the UniProt entries cited, without tags or fusion partners. Where a name states a change or a piece, a line headed by the entry shows the natural chain unless it says otherwise.
UniProt P15538: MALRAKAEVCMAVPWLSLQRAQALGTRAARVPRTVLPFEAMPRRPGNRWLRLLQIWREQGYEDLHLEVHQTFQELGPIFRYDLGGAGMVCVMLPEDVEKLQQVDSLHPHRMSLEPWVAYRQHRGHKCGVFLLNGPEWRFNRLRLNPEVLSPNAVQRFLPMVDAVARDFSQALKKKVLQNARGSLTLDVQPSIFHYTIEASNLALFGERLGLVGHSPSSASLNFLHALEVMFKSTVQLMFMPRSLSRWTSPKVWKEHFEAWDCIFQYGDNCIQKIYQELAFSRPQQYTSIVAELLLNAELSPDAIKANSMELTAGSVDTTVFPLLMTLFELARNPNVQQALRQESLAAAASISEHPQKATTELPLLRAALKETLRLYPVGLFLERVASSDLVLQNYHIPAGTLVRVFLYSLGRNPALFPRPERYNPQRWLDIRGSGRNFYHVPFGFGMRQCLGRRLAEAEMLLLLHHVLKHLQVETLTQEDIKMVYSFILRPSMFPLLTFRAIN

Target: T1, human CYP11B1 mutant (W49R, L50N, L53N, W56R, L244N, W247N) (Homo sapiens, UniProt P15538, L244N/L50N/L53N/W247N/W49R/W56R)
T1 sequence (P15538 28-503 W49R/L50N/L53N/W56R/L244N/W247N limits assumed): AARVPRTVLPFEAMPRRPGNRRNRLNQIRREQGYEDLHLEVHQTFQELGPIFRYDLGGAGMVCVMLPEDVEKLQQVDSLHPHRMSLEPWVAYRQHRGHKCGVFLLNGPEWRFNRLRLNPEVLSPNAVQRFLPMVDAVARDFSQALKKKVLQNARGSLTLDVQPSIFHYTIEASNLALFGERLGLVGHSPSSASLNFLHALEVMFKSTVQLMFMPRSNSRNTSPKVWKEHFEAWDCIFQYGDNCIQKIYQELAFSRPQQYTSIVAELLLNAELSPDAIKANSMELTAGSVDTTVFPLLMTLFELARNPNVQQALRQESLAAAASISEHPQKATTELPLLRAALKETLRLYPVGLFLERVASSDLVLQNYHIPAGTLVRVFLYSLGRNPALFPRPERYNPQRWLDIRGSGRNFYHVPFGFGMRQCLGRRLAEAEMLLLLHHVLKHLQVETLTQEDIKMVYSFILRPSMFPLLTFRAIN
Test: Spectroscopic titration of ferric enzyme (difference spectra), mutant
Conditions: calculated from apparent Kd obtained by titration in the presence of 320 μM DOC

CC(C)(C(=O)c1cccnc1)c1cccnc1 [Metyrapone, metyrapone]
Kd: 11.9 nM
